Data taken from patent US20090155283A1 (published 2009).

Target: T1, recombinant IL-1R1 (R&D Systems) (human, UniProt P14778 18-332, limits assumed)
T1 construct: also called Interleukin 1 Receptor type 1; immobilized IL-1R1
T1 sequence (looked up): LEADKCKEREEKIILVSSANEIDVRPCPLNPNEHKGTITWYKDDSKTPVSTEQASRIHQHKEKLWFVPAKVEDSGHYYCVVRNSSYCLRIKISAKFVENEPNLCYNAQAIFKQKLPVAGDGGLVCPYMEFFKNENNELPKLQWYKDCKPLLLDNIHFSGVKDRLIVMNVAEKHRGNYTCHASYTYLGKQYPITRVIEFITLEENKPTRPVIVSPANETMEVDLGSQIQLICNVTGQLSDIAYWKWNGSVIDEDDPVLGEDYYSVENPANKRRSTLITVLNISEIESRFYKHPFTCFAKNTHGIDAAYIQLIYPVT
Assay: SPR sensorgrams (FIGS. 3A and 3B), IL-1R1 immobilized
Method: IL-1ra was injected over immobilized IL-1R1 and bound to the immobilized receptor.
To determine the epitopic specificity of the anti-IL-1R1 dAbs, competitive binding assays were performed. […] When an injection of IL-1ra was followed by an injection of IL-1α, two molecules that are known to compete for binding to the receptor, the IL-1α was also unable to bind the receptor (FIG. 3B).

B1: Interleukin 1 receptor antagonist (IL-1ra) (ligand, UniProt P18510 26-177, looked up)
chain: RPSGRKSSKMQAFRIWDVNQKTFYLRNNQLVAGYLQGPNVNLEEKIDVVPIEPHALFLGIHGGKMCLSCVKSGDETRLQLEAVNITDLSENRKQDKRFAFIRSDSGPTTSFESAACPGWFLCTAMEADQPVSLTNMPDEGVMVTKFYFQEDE
binding result: binds
